Earlier results as cited in PMC9119314, “Semi-Synthetic Analogues of Cryptolepine as a Potential Source of Sustainable Drugs for the Treatment of Malaria, Human African Trypanosomiasis, and Cancer” (Frontiers in Pharmacology, 2022).

Tested on: P. berghei
Settings: 50 mg/kg/dose, with an antimalarial effect, ref Wright et al., 1996; cited from earlier work

## C[n+]1c2ccccc2cc2[n-]c3ccccc3c21 [Compound 1, cryptolepine]
  Oral safety in mice: could be administered safely
